Tested on: catalepsy
Assay type: in vivo
Procedure: The propensity of the drugs to induce extrapyramidal side effects was assessed by measuring their potential to induce catalepsy and to antagonize apomorphine-induced stereotyped behaviour and the sedative potential of the drugs was evaluated by their capacity to decrease spontaneous locomotor activity in the rat.
The occurrence of catalepsy in rats was assessed using the four-cork test. This measurement was performed by placing each paw of the rat on a 2.5 cm high cork (diameter 1.2 cm). Distance between contralateral corks was 8 cm and between ipsilateral corks 13 cm. Catalepsy time was measured for a maximum of 2 min at 2 hours, and 4 hours after ip drug treatment.

SMILES: CCN1CCC[C@H]1CNC(=O)c1cc(S(=O)(=O)CC)c(N)cc1OC [(S)(-)-amisulpride, (S)-(-)-4-amino-N-[(1-ethylpyrrolidin-2-yl)methyl]-5-(ethylsulfonyl)-2-methoxybenzamide]
- Potency of both compounds in models predictive of extrapyramidal and sedative side effects ((S)(-)-amisulpride compared with (R,S)-amisulpride, in words): quite similar
- Induction of catalepsy, in words (at doses up to 100 mg/kg, ip): neither compound induced catalepsy

From patent publication US6187807A, “Methods of use and compositions of (S) (-)-amisulpride” (Sanofi-Synthelabo, priority 1999, dated 2001)
